The subject of the experiment is RAGE ligands. The experiment is described as follows: Depletion of conditioned media by soluble RAGE receptor (FIG. 22). The settings on record: eluate reconstitutes cachexia activity.

Take “soluble RAGE receptor: negative regulator of RAGE signaling that acts as a sink for RAGE ligands”: the “depletion of cachexia activity from conditioned media” value is reported as “depletes conditioned media of cachexia activity”.

The values above are taken from patent US20170240632A1, “COMPOSITIONS AND METHODS FOR IDENTIFYING AND TREATING CACHEXIA OR PRE-CACHEXIA” (THE BROAD INSTITUTE INC., priority 2014, published 2017).
